Assay results taken from patent publication US11351221B2, “SMAC mimetic” (Medivir AB, priority 2009, dated 2022).

Type: in vivo
Conditions: rat, 5 mg/Kg, QDx4 i.v. bolus
Description: Body weight loss (BWL), mortality and additional toxicity data were generated substantially as follows. Sprague-Dawley rats were dosed daily (QD×4, i.v. bolus slow push) with Compounds 15, 4 and 5. Body weights were taken on day 4 and are shown as percent change from day 1. Compounds 4 and 5 were administered at 0.3 mg/Kg, 1 mg/Kg, or 3 mg/Kg; Compound 15 was administered at 1, 5, or 10 mg/Kg.

With CC[C@H](NC(=O)[C@H](C)NC)C(=O)N1C[C@@H](O)C[C@H]1Cc1c(-c2[nH]c3cc(F)ccc3c2C[C@@H]2C[C@H](O)CN2C(=O)[C@H](CC)NC(=O)[C@H](C)NC)[nH]c2cc(F)ccc12 [Compound 15, N-{1S-[2R-(6,6′-Difluoro-3′-{4S-hydroxy-1-[2S-(2S-methylamino-propionylamino)-butyryl]-pyrrolidin-2R-ylmethyl}-1H,1′H-[2,2′]biindolyl-3-ylmethyl)-4S-hydroxy-pyrrolidine-1-carbonyl]-propyl}-2S-methylamino-propionamide] the Mortality was “No mortality was observed”.
